For one molecule, Ki results are on record in ChEMBL document CHEMBL1136055, “3-Heteroaryl-2-pyridones: benzodiazepine site ligands with functional delectivity for alpha 2/alpha 3-subtypes of human GABA(A) receptor-ion channels” (J Med Chem, 2002).

Protein sequences, listed by entry. Tags and fused reporters are not part of them. Residues count along the entry.
UniProt P18507, 40-475 limits assumed: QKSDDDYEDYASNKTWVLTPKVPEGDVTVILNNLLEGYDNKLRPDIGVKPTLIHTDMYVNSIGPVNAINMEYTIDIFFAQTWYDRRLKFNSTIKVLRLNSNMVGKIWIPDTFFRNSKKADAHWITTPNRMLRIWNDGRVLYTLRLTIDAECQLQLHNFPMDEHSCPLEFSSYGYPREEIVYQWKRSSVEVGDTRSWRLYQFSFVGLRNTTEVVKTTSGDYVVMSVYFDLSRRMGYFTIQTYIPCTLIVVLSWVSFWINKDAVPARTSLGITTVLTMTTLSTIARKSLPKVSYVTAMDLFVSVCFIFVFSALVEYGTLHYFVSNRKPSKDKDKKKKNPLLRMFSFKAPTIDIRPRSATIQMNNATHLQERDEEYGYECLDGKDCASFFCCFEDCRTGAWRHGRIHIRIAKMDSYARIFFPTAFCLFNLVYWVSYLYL
UniProt P28472, 26-473 limits assumed: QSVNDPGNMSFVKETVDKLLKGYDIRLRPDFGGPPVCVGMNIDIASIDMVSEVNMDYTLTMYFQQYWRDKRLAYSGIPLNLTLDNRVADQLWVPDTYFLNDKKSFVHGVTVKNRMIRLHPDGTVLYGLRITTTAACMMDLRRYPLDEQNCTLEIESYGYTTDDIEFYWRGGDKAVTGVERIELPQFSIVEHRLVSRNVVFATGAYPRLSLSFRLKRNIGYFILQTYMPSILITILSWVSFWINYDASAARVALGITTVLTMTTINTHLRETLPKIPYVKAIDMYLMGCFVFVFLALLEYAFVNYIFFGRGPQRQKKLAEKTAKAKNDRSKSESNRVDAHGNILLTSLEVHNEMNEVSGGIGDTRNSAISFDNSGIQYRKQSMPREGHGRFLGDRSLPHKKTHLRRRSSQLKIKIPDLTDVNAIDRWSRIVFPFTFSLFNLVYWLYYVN
UniProt P47869, 29-451 limits assumed: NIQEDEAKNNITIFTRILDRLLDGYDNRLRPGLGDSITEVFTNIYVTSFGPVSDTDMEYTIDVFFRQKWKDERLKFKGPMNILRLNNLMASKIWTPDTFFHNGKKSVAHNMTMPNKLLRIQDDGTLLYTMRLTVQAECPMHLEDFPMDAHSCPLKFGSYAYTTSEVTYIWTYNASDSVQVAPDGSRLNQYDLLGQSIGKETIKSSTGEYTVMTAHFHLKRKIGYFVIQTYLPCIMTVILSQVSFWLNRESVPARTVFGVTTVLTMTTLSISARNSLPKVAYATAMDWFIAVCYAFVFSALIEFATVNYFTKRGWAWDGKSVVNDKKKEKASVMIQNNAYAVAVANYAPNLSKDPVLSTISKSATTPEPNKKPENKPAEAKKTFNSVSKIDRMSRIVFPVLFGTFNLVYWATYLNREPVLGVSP
UniProt P31644, 32-462 limits assumed: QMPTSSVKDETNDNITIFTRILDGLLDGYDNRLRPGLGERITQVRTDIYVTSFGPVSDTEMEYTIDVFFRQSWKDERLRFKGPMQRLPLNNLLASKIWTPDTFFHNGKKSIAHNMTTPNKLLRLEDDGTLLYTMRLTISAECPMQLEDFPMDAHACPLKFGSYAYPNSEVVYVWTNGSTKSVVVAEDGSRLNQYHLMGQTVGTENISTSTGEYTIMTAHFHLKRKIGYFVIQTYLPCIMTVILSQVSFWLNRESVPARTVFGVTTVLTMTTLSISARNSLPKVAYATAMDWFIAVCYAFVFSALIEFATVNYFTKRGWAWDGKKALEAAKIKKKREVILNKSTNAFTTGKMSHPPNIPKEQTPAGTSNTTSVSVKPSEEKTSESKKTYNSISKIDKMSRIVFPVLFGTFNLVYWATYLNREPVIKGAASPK
UniProt P14867, 28-456 limits assumed: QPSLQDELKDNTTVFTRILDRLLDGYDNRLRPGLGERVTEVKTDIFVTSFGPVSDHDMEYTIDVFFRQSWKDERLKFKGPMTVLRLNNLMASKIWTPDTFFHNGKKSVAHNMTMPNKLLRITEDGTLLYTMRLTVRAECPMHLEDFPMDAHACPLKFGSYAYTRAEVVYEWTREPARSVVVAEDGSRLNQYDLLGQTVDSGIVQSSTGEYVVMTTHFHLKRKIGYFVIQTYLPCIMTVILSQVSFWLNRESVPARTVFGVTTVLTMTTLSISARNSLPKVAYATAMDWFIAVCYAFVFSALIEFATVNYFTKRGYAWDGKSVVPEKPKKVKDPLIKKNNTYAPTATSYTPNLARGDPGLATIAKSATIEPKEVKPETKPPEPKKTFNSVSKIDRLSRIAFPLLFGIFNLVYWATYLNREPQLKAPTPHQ
UniProt P34903, 29-492 limits assumed: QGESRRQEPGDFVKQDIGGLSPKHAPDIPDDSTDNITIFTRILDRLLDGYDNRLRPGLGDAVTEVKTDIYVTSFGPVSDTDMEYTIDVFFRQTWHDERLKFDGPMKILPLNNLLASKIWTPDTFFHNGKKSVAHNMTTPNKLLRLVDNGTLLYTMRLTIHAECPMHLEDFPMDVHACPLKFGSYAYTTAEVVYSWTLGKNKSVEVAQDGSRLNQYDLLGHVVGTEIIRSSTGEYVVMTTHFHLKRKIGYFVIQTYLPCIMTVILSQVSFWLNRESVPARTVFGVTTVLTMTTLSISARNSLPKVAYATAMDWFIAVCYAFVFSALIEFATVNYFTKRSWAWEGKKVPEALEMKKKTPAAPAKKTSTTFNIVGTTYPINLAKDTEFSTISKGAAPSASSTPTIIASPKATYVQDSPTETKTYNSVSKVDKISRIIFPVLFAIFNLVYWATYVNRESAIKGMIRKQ

The target in experiment [1] is GABA-A receptor; alpha-2/beta-3/gamma-2 (Homo sapiens, UniProt P18507+P28472+P47869). The experiment in a line: Displacement of [3H]Ro-151788 from human Gamma-aminobutyric acid A receptor alpha-2-beta-3-gamma-2 stably expressed in L(tk-) cells. On the technique in general: Displacement assays read how much labelled ligand stays bound in the presence of the test substance.

Experiment [2] concerns the target GABA-A receptor; alpha-5/beta-3/gamma-2 (Homo sapiens, UniProt P18507+P28472+P31644). The experiment in a line: Inhibition of [3H]Ro-151788 binding to human GABA A receptor (alpha-5-beta-3-gamma-2) stably expressed in L(tk-) cells.
In experiment [3] the target is GABA-A receptor; alpha-1/beta-3/gamma-2 (Homo sapiens, UniProt P14867+P18507+P28472). In words: Inhibition of [3H]Ro-151788 binding to human GABA A receptor (alpha-1-beta-3-gamma-2) stably expressed in L(tk-) cells.
The target in experiment [4] is GABA-A receptor; alpha-3/beta-3/gamma-2 (Homo sapiens, UniProt P18507+P28472+P34903). In words: Binding affinity by displacement of [3H]Ro-151788 from recombinant human gamma-aminobutyric-acid A receptor alpha3,beta3,gamma2 stably expressed in L cells.

As usually defined, the Ki is the equilibrium dissociation constant of an inhibitor or competing ligand from its target. For the molecule `CNC1=Nc2ccc(Cl)cc2C(c2ccccc2)=[N+]([O-])C1`, the Ki was 460 nM in experiment [1], 320 nM in experiment [2], 560 nM in experiment [3] and 275 nM in experiment [4].
